Tests used:
phospho-AKT (pAKT) = test: Signaling in iPS-derived cardiomyocytes; assay type: cell-based, human; details: 24 hours pretreatment; 10 nM heregulin, 10 min
Experimental: (§1) iPS-derived cardiomyocytes (iCell™ iPS-derived human cardiomyocytes—Cellular Dynamics International (CDI), Madison, Wis.—CDI #CMC-100-010-001, Lot 1258680) are cultured using iCell™ Plating Medium (CDI #CMM-100-110-005, Lot 1013740 and iCell™ Maintenance Medium (CDI #CMM-100-120-005, Lot 1000305) and are exposed to components of MM-302. Levels of phospho-AKT (pAKT) and phospho-ERK (pERK) in the cardiomyocytes are then measured using immunostaining and high content microscopy. Cells are pretreated for 24 hours with either trastuzumab, lapatinib, or the MM-302 antibody (F5-scFv) and an MM-302 molecule (liposome) not containing doxorubicin (F5-lipo) at an equivalent concentration to 5.0 ug/ml of MM-302. Cells are stained and imaged using high content microscopy as described above for (A) pAKT and (B) pERK following a10 minute stimulation with 10 nM and 5 nM of heregulin, respectively. […] Images are analyzed and individual cells are segmented on the basis of Hoechst 33342 nuclear staining. Single cell signal intensity for each stain is quantified and represented as the mean relative intensity of individual cells.
(§2) After stimulation with 10 nM (FIG. 6A) and 5 nM (FIG. 6B) of heregulin (HRG) for 10 min, the levels of phospho-AKT (pAKT, FIG. 6A) and phospho-ERK (pERK, FIG. 6B) were measured by high content microscopy as described above.

phospho-ERK (pERK) = test: Signaling in iPS-derived cardiomyocytes; assay type: cell-based, human; details: 24 hours pretreatment; 5 nM heregulin, 10 min
Experimental: as §1, §2

## trastuzumab: therapeutic anti-HER2 antibody
phospho-AKT (pAKT)
  heregulin (HRG)-induced phosphorylation of AKT: reduction in HRG-mediated phosphorylation
phospho-ERK (pERK)
  heregulin (HRG)-induced phosphorylation of ERK: reduction in HRG-mediated phosphorylation

Source: patent publication US9610249B2, “Dosage and administration for preventing cardiotoxicity in treatment with ERbB2-targeted immunoliposomes comprising anthracycline chemotherapeutic agents” (MERRIMACK PHARMACEUTICALS, INC., priority 2010, dated 2017)
